The values below come from PubChem BioAssay AID887 (National Center for Advancing Translational Sciences (NCATS), 2007).

Sequences of proteins named here, by UniProt entry; tags and fusion partners are left off. A change or cut given only in a name is not applied to a line headed by its entry.
UniProt P16050: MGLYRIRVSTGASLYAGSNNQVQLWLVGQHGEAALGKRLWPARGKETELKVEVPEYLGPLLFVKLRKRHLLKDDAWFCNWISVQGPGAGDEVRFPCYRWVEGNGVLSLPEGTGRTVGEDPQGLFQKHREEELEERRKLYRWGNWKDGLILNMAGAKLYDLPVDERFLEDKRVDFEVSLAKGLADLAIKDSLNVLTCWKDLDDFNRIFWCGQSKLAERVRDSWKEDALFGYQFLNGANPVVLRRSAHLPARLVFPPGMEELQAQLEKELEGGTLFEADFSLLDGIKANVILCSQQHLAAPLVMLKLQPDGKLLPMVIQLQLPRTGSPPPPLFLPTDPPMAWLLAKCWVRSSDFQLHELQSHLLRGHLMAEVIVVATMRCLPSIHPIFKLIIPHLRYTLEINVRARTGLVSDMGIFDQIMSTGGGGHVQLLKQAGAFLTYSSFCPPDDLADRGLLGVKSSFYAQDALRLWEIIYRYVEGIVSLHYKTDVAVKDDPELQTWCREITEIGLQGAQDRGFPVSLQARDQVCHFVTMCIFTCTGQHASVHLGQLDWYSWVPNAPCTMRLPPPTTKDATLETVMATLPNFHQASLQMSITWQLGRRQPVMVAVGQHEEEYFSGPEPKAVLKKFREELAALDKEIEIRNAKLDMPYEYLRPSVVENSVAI

This is a selection; strong and weak results do not stand in their true shares. Inconclusive results are not listed. Active and inactive are the calls of the source. Calls follow the shape of the dose curve; as a rule, active = well fitted inhibition curve with a large enough effect; inconclusive = small, poorly fitted or top-dose-only effect; inactive = no such curve, though single readings can be large or run the other way.
% is scaled to controls: 0 for no effect and ±100 for the full control effect; potency is read from the fitted curve at half-maximal effect.

The assay deals with Polyunsaturated fatty acid lipoxygenase ALOX15 (Homo sapiens) (UniProt P16050). Put plainly: qHTS Assay for Inhibitors of 15-hLO (15-human lipoxygenase). Also: nearly all actives have a fitted effect of over 55% in size. Particulars: purified 15hLO-1, xylenol orange hydroperoxide absorbance; series mostly up to 57.1 µM; activity change, negative = inhibition: at the top concentration.
For `CCc1nc2c(n1)c1c(non1O)c1c2no[n+]1[O-]`, the “activity change, negative = inhibition” value is inactive: 3.49%.
On the same count and under the same terms, then `O=C(CO)Nc1ccc([As](=O)(O)O)cc1`, with inactive: 6.5% [at 11.4 µM].
In the case of `CN(C(=O)Cc1ccccc1)[C@@H]1CC[C@@]2(CCCO2)C[C@H]1N1CCCC1`, the Potency is active: 3160 nM.
Regarding `CN(C(=O)Cc1ccc(Cl)c(Cl)c1)[C@H]1CCCC[C@@H]1N1CCCC1`, the activity change, negative = inhibition result was “inactive”.
For the molecule `C(Cc1nn[nH]n1)c1nn[nH]n1`, the activity change, negative = inhibition was inactive: 9.94% [at 11.4 µM].
The same measure, in the same setting: the value for `[N-]=[N+]=NCC(O)CN=[N+]=[N-]` (stereo not drawn) was inactive: 10.8% [at 11.4 µM]; that for `O=[N+]([O-])c1ccc(C[As](=O)(O)O)cc1` was inactive: -0.942% [at 11.4 µM].
Take `O=P1(Nc2nc3ccc(Cl)cc3s2)COc2ccccc2O1` (stereo not drawn): the “activity change, negative = inhibition” value was inactive: -4.94%.
As for `COC(=O)c1cc2c(s1)N=C(c1ccccc1)N(C)P2(=O)N1CCOCC1` (stereo not drawn), the “activity change, negative = inhibition” value is inactive: 13.1%.
As for `[N-]=[N+]=Nc1ccc([As](=O)(O)O)cc1`, the activity change, negative = inhibition is inactive: -0.557% [at 11.4 µM].
As for `Cc1cc([N+](=O)[O-])cc([N+](=O)[O-])c1O`, the “activity change, negative = inhibition” value is inactive: -7.19%.
On the same count and under the same terms, then `O=C(OC1CN2CCC1CC2)c1cccc(Cl)c1` (stereo not drawn), with inactive: -0.491%; and `c1nnnn1CCn1cnnn1`, with inactive: 2.28%.
`O=P(Nc1nccs1)(c1ccccc1)c1ccccc1`: the “activity change, negative = inhibition” value was inactive: 8.45%.
As to `C[C@@H](O)COc1ccc([As](=O)(O)O)cc1N`, the activity change, negative = inhibition was inactive: 3.6% [at 11.4 µM].
Regarding `CN1CCC[C@H](OC(=O)C(c2ccccc2)c2ccccc2)C1`, the activity change, negative = inhibition was inactive: 3.48% [at 11.4 µM].
`Clc1n[nH]nc1-c1nn[nH][15n]1`: the “activity change, negative = inhibition” value is inactive: 1.63%.
For `O=P1(Nc2ccccn2)COc2ccccc2OC1`, the “activity change, negative = inhibition” value is inactive: 16.6%.
On the same count and under the same terms, then `CN(CCCl)Cc1cc(Cl)c(NC2=NCCN2)c(Cl)c1`, with inactive: 11.1%; and `CN(C(=O)Cc1ccc(Cl)c(Cl)c1)[C@@H]1CCCC[C@H]1N1CCCC1`, with “inactive”; and `Cc1nn(-c2ccccc2)c2c1P(=O)(N1CCOCC1)N(C)C(c1ccccc1)=N2` (stereo not drawn), with inactive: 2.97%.
As to `O=P1(Nc2ccc(Br)cn2)COc2ccccc2OC1`, the “activity change, negative = inhibition” value was inactive: -7.1%.
Consider `O=P1(Nc2ncccn2)COc2ccccc2OC1`, for which the “activity change, negative = inhibition” value was inactive: 3.58%.
The same measure, in the same setting: then `O=[As](O)(O)c1ccc([As](=O)(O)O)cc1`, with inactive: 0.359% [at 11.4 µM].
Take `O=P(Nc1nccs1)(c1ccccc1)c1nc2ccccc2s1` (stereo not drawn): the Potency is active: 501 nM.
In the case of `CCOP1(=S)c2c(C)nn(CCC#N)c2N=C(c2ccccc2F)N1C` (stereo not drawn), the “activity change, negative = inhibition” value is inactive: -0.999%.
As for `CCOP1(=S)c2c(C)nn(CCC#N)c2N=C(c2ccc(F)cc2)N1C` (stereo not drawn), the “activity change, negative = inhibition” value is inactive: -13.3%.
Same read-out and setting: the value for `NC(=O)Nc1ccc([As](=O)(O)O)cc1` was “inactive”; that for `O=C(CC(=O)c1ccccc1)O[C@H]1CN2CCC1CC2` was inactive: -6.17% [at 11.4 µM]; that for `NS(=O)(=O)Cc1ccc([As](=O)(O)O)cc1` was inactive: -3.08% [at 11.4 µM].
As for `NC(=O)Nc1cc([As](=O)(O)O)cc(I)c1O`, the activity change, negative = inhibition was inactive: 15.7% [at 11.4 µM].
For `O=C(OC1CN2CCC1CC2)C12CC3CC(CC(C3)C1)C2` (stereo not drawn), the “activity change, negative = inhibition” value was inactive: -11%.
On the same count and under the same terms, then `O=[As]c1ccc(S(=O)(=O)NCCO)cc1` (stereo not drawn), with inactive: -0.41% [at 11.4 µM]; and `[N-]=[N+]=NCC(N)=O`, with inactive: 3.89% [at 11.4 µM].
As for `CN(N=O)C(=N)N[N+](=O)[O-]`, the “activity change, negative = inhibition” value was inactive: -2.14%.
With `O=C(O)[C@@H](O)c1ccc([As](=O)(O)O)cc1`, the activity change, negative = inhibition was inactive: 1.22% [at 11.4 µM].
On to `O=C(COc1ccccc1)OC1CN2CCC1CC2` (stereo not drawn), for which the “activity change, negative = inhibition” value is inactive: 5.46%.
The same measure, in the same setting: the value for `COP1(=S)c2c(C)nn(CCC#N)c2N=C(c2ccc(F)cc2)N1C` (stereo not drawn) was inactive: 4.54%.
